These results are taken from PubChem BioAssay AID602247 (The Scripps Research Institute Molecular Screening Center, 2012).

The structures appear in SMILES notation. The list shows a part of the results, in another mix than the full data. Some tests of the compounds listed are not included; inactive here does not mean inactive elsewhere. The source made the active and inactive calls.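 How the source made its calls: active means activation above the run cutoff, the mean activation of all test compounds plus 3 SD (cut at about 40% in these data); inactive means the rest.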

A short description of the assay: nonselective calcium activators in parental CHO-K1 cells, primary screen, counter-screen for M1 PAM project, cell-based, Fluo-8 calcium fluorescence, full deck, 1536-well (AID 602247).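 Further: peak over basal fluorescence ratio in a 140 s read after ATP addition.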 The conditions noted are these: parental CHO-K1, ATP EC20, Fluo-8 calcium fluorescence; at 3 µM; stronger effect = higher value; 0% at ATP EC20, 100% at ATP max.
`CCN1CCCC(OC(=O)C2(O)c3ccccc3C=Cc3ccccc32)C1` (stereo unspecified): the activation was inactive: 13.4%. For the compound `Cc1cc(C(=O)NCC2(N3CCCCC3)CCCCC2)ccc1[N+](=O)[O-]`, the activation is inactive: 19%. On to `O=C(NCC1(N2CCCCC2)CCCCC1)c1cccc(Br)c1`, for which the activation is inactive: 19%. As for `COc1ccc(C(=O)NCC2(N(C)C)CCCCC2)cc1`, the figure is inactive: -7.21%; as for `C=CCN1CCN(CCOC(=O)C(O)(c2ccccc2)c2ccccc2)CC1`, inactive: 11.3%; as for `O=C(NCC1(N2CCCCC2)CCCCC1)c1cc(F)c(F)cc1Cl`, inactive: -4.08%.

Regarding `Cc1ccccc1C(=O)NCC1(N2CCCCC2)CCCCC1`, the activation is inactive: 19.4%. For the compound `CN(C)c1ccc(C(=O)NCC2(N(C)C)CCCCC2)cc1`, the activation was inactive: 17.7%. For the compound `CN(C)C1CCCC1OC(=O)C(O)(c1ccccc1)c1ccccc1` (stereo unspecified), the activation was inactive: -13.2%.

On to `Cc1ccc(C(=O)NCC2(N3CCCCC3)CCCCC2)cc1`, for which the activation was inactive: 6.05%. As for `CC(C)N1C(=O)CC2(CCN(CCOC(=O)C(O)(c3ccccc3)c3ccccc3)CC2)C1=O`, the figure is inactive: 20.1%; as for `CCN(CC)CC(C)C(C)OC(=O)C(O)(c1ccccc1)c1ccccc1` (stereo unspecified), inactive: -22.4%. As for `COc1cc(SC)ccc1C(=O)NCC1(N(C)C)CCCCC1`, the figure is inactive: 0.79%; as for `CN1[C@@H]2CC[C@H]1CC(OC(=O)C(O)(c1ccccc1)c1ccccc1)C2` (stereo partly specified), inactive: 6.3%. As for `O=C(NCC1(N2CCCCC2)CCCCC1)c1cc([N+](=O)[O-])ccc1Cl`, the figure is inactive: 5.63%; as for `CN(C)c1cccc(C(=O)NCC2(N(C)C)CCCCC2)c1`, inactive: 9.47%. As for `CC(C)Oc1ccc(C(=O)NCC2(N(C)C)CCCCC2)cc1`, the activation was inactive: -5.44%. Consider `O=C(OCCN1CCCC1)C(O)(c1ccccc1)c1ccccc1`, for which the activation is inactive: 14%. On to `COc1ccc(Br)c(C(=O)NCC2(N3CCCCC3)CCCCC2)c1`, for which the activation was inactive: 2.39%. Regarding `C=C(C)C#CC(O)(C(=O)OC1CCN(C)CC1)c1ccccc1` (stereo unspecified), the activation is inactive: 18.8%. For `O=C(OC1CN2CCC1CC2)C(CO)(c1ccccc1)c1ccccc1` (stereo unspecified), the activation was inactive: -0.41%. For `O=C(NCC1(N2CCCCC2)CCCCC1)c1cccc(Cl)c1`, the activation is inactive: 15.9%. As for `COc1cccc(C(=O)NCC2(N3CCCCC3)CCCCC2)c1`, the figure is inactive: 13.3%. Regarding `COc1ccc(Cl)cc1C(=O)NCC1(N(C)C)CCCCC1`, the activation is inactive: 3.76%.

Take `COc1cc(C(=O)NCC2(N(C)C)CCCCC2)c([N+](=O)[O-])cc1OC`: the activation is inactive: 5.19%. Turning to `CN(C)C1(CNC(=O)c2ccc(Br)cc2)CCCCC1`, the activation was inactive: 4.82%.
